Tests used:
Myzus persicae = details: in vivo
Excerpt: (§1) The expected action for a given combination of two active compounds can be calculated according to S. R. Colby, Weeds 15 (1967), 20-22, as follows:
(§2) If the actual insecticidal or acaricidal kill rate exceeds the calculated value, the kill of the combination is superadditive, i.e. a synergistic effect is present. In this case, the actually observed kill rate must exceed the value calculated using the above formula for the expected kill rate (E).
(§3) • Solvents: 78 parts by weight of acetone 1.5 parts by weight of dimethylformamide • Emulsifier: 0.5 part by weight of alkylaryl polyglycol ether
(§4) To produce a suitable preparation of active compound, 1 part by weight of active compound is mixed with the stated amount of solvent and emulsifier, and the concentrate is diluted with emulsifier-containing water to the desired concentration.
Cabbage leaves (Brassica oleracea) which are heavily infested by the green peach aphid (Myzus persicae) are treated by spraying with the active compound preparation of the desired concentration.
After the desired period of time, the kill in % is determined 100% means that all of the aphids have been killed; 0% means that none of the aphids have been killed. The kill rates determined are entered into Colby's formula (see above).

Phaedon cochleariae = details: in vivo
Excerpt: as §1, §2, §3, §4
Cabbage leaves (Brassica oleracea) are treated by spraying with the active ingredient formulation of the desired concentration and populated with larvae of the mustard beetle (Phaedon cochleariae) while the leaves are still moist.
After the desired period of time, the kill in % is determined 100% means that all beetle larvae have been killed; 0% means that none of the beetle larvae have been killed. The kill rates determined are entered into Colby's formula (see above).

triazophos
0%: Kill in % after 6d (Myzus persicae) | Kill In % after 2d (Phaedon cochleariae) | Kill In % after 6d (Phaedon cochleariae)

Source: patent publication US8846567B2, “Active compound combinations having insecticidal and acaricidal properties” (priority 2009, dated 2014)
